In ChEMBL document CHEMBL5523701, “Structure-based discovery of small molecule inhibitors of FKBP51-Hsp90 protein-protein interaction” (Eur J Med Chem, 2024):
Calls of active or inactive are those of the source. No cut-off for these calls is given here.

Tests used:
SH-SY5Y [1] = test: Induction of neurite outgrowth in differentiated human SH-SY5Y cells at 10 uM measured after 5 days by inverted microscopy; format: functional, cell-based; details: time 5.0 day
SH-SY5Y [2] = test: Induction of mitochondrial membrane potential in human SH-SY5Y cells; format: functional, cell-based
HEK293 [3] = test: Inhibition of FKBP51/Hsp90 protein-protein interaction in HEK293 cells assessed as decrease in luminescence signal at 30 uM by firefly luciferase based assay relative to control; format: cell-based; details: Homo sapiens
[4] = molecular target: T1, Peptidyl-prolyl cis-trans isomerase FKBP5 (Homo sapiens) (UniProt Q13451); test: Binding affinity to GST-tagged human FKBP51 expressed in Escherichia coli BL21 (DE3) immobilized in CM7 sensor chip by SPR analysis; details: dose 2.3-300 µM
T1 sequence (whole entry): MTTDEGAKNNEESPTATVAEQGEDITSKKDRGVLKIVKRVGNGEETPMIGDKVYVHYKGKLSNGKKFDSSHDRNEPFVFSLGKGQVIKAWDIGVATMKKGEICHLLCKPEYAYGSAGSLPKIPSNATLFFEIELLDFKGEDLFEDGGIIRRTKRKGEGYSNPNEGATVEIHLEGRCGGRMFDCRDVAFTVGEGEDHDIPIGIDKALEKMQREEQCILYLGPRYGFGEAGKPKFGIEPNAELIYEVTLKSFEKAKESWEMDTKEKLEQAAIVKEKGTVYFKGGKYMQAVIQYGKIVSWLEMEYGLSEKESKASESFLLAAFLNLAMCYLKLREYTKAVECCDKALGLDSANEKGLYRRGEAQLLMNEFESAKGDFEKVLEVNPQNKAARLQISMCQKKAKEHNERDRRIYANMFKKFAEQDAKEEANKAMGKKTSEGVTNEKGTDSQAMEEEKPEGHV

[5] = molecular target: T2, Peptidyl-prolyl cis-trans isomerase FKBP4 (Homo sapiens) (UniProt Q02790); test: Binding affinity to GST-tagged human FKBP52 expressed in Escherichia coli BL21 (DE3) immobilized in CM7 sensor chip by SPR analysis; details: dose 2.3-300 µM
T2 sequence (whole entry): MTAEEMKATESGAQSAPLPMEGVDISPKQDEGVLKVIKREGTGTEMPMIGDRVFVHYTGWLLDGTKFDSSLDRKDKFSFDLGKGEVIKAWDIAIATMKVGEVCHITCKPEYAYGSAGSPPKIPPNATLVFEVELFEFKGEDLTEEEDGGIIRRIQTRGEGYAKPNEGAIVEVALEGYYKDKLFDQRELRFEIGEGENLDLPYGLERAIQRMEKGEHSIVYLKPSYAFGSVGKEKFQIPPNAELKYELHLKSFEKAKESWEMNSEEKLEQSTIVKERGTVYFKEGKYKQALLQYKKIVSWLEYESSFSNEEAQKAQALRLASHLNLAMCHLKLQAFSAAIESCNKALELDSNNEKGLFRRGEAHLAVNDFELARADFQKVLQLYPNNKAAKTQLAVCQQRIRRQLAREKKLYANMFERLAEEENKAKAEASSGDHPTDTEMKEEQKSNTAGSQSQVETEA

SH-SY5Y [6] = test: Effect on basal respiration in human SH-SY5Y cells; format: functional, cell-based
SH-SY5Y [7] = test: Effect on maximal respiration in human SH-SY5Y cells; format: functional, cell-based
SH-SY5Y [8] = test: Effect on respiration coupled to ATP synthesis in human SH-SY5Y cells; format: functional, cell-based
HEK293 [9] = test: Induction of cell proliferation in HEK293 cells at 10 uM measured after 1 hr by MTT assay; format: functional, cell-based; details: Homo sapiens
SH-SY5Y [10] = test: Induction of mitochondrial membrane potential in human SH-SY5Y cells by TMRM fluorescence based analysis; format: functional, cell-based; details: dose 10.0 µM
HEK293 [11] = test: Induction of cell proliferation in HEK293 cells by cell counting method; format: functional, cell-based; details: Homo sapiens
HEK293 [12] = test: Inhibition of FKBP51/Hsp90 protein-protein interaction in HEK293 cells assessed as decrease in luminescence signal by firefly luciferase based assay; format: cell-based; details: Homo sapiens, dose <= 30.0 µM
HEK293 [13] = test: Inhibition of protein-protein interaction of N-terminal FLAG-tagged FKBP51 transfected in HEK293 cells/Hsp90 in HEK293 cells incubated for 48 hrs by co-immunoprecipitation method; format: cell-based; details: Homo sapiens

Q: `COc1ccc(CC[C@@H](OC(=O)[C@@H]2CCCCN2C(=O)[C@H](c2cc(OC)c(OC)c(OC)c2)C2CCCCC2)c2cccc(OCC(=O)O)c2)cc1OC` was tested. Which Activity (SH-SY5Y [1]) did it give?
A: Active

Q: And the Activity (SH-SY5Y [2])?
A: Active

Q: For `COC(=O)c1c(NC(=O)CCSc2nnc(-c3ccco3)c(-c3ccco3)n2)sc(C)c1C`, which Activity (SH-SY5Y [1]) is on record?
A: Active

Q: How did the inhibition (HEK293 [3]) turn out when `COC(=O)c1c(NC(=O)CSc2nnc(-c3ccco3)c(-c3ccco3)n2)sc(C)c1C` was run?
A: > 70%

Q: And the Activity [4]?
A: Dose-Dependent Effect

Q: What about the Activity [5] of the same molecule?
A: Dose-Dependent Effect

Q: What about the Activity (SH-SY5Y [6]) of the same molecule?
A: inactive

Q: What about the Activity (SH-SY5Y [7]) of the same molecule?
A: inactive

Q: And the Activity (SH-SY5Y [8])?
A: inactive

Q: And the Activity (HEK293 [9])?
A: Active

Q: What about the Activity (SH-SY5Y [1]) of the same molecule?
A: Active

Q: And the Activity (SH-SY5Y [10])?
A: Dose-Dependent Effect

Q: And the Activity (HEK293 [11])?
A: inactive

Q: What about the inhibition (HEK293 [12]) of the same molecule?
A: Dose-Dependent Effect

Q: And the inhibition (HEK293 [13])?
A: Active

Q: For `COc1ccc(CC[C@@H](OC(=O)[C@@H]2CCCCN2C(=O)[C@H](c2cc(OC)c(OC)c(OC)c2)C2CCCCC2)c2cccc(OCCN3CCOCC3)c2)cc1OC`, which Activity (SH-SY5Y [2]) is on record?
A: Active
